1 substance from patent US20240116920A1 (priority 2020, published 2024) can be followed below.

Protein sequences, listed by entry. Tags and fused reporters are not part of them. Lines headed by an entry give the natural chain unless they say otherwise; changes in a name come on top.
UniProt P23458: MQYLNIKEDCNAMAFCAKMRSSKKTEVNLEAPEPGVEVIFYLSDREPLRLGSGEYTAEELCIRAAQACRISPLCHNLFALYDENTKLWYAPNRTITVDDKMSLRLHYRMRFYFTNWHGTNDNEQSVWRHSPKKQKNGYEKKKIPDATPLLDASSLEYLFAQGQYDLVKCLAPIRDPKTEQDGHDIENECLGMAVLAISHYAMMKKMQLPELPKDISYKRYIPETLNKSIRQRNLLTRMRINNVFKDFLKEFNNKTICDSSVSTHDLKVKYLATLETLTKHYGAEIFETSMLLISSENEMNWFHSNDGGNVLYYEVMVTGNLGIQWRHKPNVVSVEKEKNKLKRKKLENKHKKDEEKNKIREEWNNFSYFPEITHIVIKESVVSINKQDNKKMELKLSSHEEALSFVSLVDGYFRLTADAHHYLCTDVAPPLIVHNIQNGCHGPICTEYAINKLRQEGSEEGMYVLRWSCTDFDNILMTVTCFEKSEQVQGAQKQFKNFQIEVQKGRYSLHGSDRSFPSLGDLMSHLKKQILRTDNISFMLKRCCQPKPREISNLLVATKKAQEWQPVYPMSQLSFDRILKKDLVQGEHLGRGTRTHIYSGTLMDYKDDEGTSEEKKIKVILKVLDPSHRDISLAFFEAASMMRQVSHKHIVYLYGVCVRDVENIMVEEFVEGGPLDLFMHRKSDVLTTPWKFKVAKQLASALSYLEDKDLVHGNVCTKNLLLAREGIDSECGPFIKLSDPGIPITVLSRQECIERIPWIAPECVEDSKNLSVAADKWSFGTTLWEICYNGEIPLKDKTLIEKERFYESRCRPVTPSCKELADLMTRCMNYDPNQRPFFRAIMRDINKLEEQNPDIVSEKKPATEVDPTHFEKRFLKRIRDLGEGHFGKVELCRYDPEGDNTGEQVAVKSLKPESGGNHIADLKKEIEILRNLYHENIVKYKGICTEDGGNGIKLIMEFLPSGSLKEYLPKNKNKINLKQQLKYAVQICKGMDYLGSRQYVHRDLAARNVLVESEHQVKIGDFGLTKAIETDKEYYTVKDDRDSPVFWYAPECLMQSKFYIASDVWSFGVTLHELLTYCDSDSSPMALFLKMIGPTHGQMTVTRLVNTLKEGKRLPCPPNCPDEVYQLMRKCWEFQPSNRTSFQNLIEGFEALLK

Assay [1] deals with T1, JAK1 (Homo sapiens, UniProt P23458). The settings on record: read-out: IC50 JAK1.
Assay [2] deals with T1, JAK1. The note with it: read-out: GI50 JAK1; Ba/F3 cell-based.
The target in another assay is T2, JAK3 (Homo sapiens, UniProt P52333).
T2 sequence (P52333 1-1124): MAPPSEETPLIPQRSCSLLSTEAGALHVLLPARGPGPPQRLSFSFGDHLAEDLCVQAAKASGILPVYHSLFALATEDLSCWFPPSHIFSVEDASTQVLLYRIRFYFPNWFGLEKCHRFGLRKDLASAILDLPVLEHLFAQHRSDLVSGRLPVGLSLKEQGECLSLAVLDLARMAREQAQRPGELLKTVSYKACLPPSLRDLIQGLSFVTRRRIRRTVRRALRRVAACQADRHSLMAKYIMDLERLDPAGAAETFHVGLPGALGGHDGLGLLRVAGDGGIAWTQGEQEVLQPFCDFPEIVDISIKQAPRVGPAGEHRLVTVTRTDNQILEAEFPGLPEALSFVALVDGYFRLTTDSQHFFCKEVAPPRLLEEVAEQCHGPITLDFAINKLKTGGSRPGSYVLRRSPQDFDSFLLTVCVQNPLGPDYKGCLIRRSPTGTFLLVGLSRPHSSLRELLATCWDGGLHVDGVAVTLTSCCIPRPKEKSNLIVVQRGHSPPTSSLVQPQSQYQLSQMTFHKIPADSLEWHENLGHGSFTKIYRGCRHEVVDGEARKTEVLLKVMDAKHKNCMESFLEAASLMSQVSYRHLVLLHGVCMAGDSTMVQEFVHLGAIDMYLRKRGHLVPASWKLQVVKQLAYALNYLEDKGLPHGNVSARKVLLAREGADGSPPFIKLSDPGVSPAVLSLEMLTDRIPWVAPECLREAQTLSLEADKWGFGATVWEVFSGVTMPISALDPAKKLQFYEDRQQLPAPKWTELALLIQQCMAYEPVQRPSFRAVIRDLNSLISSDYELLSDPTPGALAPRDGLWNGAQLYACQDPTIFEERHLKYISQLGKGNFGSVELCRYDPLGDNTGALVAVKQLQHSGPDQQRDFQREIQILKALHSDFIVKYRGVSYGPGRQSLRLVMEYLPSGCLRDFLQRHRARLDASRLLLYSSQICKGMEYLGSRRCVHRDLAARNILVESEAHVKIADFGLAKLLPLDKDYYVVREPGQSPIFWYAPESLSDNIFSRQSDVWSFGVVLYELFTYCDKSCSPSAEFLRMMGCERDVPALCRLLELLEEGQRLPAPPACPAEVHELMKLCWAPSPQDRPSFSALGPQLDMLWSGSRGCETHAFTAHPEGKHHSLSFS
The note with it: read-out: IC50 JAK3.

What is called IC50 is the concentration at which inhibition is half-maximal. A word on the GI50: it is the concentration at which growth is held to half of that of the control. Regarding “4-(42S,4S)-1-(4-trifluoromethyl)-2-methylpiperidin-4-yl)amino)-N-methyl-1H-pyrrolo[2,3-b]pyridine-5-carboxamide [57a]”, the figures for the IC50 on JAK1 [1] and at JAK3 were 0.017 nM and 9.24 nM, respectively. The concentration for 50% growth inhibition (GI50) on JAK1 [2] was 1.45 nM.
